Experimental data published in US20210292586A1, “AQUEOUS INK FOR INKJET RECORDING” (KAO CORPORATION, priority 2018, published 2021).

Settings: 10 parts in 90 parts of water at room temperature (25° C.)

polypropylene glycol diglycidyl ether
water solubility rate: 31 % by mass
